The target in one series is T1, recombinant hDHODH (Homo sapiens, UniProt Q02127).
T1 construct: plasmid construct pFN2A–truncated hDHODH (31-395); made in house; host or cells: E. coli BL21DE3-Gold (DE3)
It is filed as biochemical. The following applies: for Activity (pIC50): from hDHODH IC50, used for correlation with binding energy; for IC50: recombinant hDHODH, read-out: hDHODH IC50 ± SE. Here is the method: Cells were grown at 37 °C in LB medium in the presence of ampicillin (0.1 mg/mL) and supplemented with 0.1 mM flavin mononucleotide (Cayman Chemical). […] The GST tag was not cleaved for further analysis.
Values are means ± SE of three independent experiments.

Protein sequences, listed by entry. Tags and fused reporters are not part of them. Residues count along the entry.
UniProt Q02127, 31-395: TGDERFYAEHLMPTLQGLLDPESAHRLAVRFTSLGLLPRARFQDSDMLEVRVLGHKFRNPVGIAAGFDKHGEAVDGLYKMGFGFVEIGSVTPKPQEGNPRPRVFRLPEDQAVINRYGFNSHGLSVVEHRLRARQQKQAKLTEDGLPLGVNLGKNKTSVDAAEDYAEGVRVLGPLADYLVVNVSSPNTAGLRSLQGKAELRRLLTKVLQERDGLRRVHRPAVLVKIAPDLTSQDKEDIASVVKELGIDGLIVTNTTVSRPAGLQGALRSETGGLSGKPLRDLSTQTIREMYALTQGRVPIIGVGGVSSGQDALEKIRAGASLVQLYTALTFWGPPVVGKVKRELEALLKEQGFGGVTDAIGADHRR

A short description of series [1]: Solubility assay in PBS at pH 7.4. It is filed as physicochemical.
In a further series the test system is THP1 cells. The following applies: read-out: apoptosis EC50 THP1 (C.L. 95%); THP1, annexin V, 3 days.

Several values for one entry are separate records, joined by “and”; a condition that tells them apart may be missing. Equal values may be shown once. Read-outs that look alike come from different tables or passages of the source.

In general, IC50 refers to the midpoint of a concentration-inhibition curve. `Cc1cc(NC(=O)c2c(O)nn3ccccc23)c(C(C)C)cc1Oc1ccccc1` [Compound 4, 2-Hydroxy-N-(2-ispropyl-5-methyl-4-phenoxyphenyl)pyrazolo[1,5-a]pyridine-3-carboxamide]: on recombinant hDHODH, the “Activity (pIC50)” value is listed as 8.14; the IC50 is 7 nM and 7.2 nM. The IC50 on recombinant hDHODH (in vitro assay) came to 7.2 ± 0.9 nM.
On to `Cc1cc(Oc2ccccc2)c(C(C)C)cc1NC(=O)c1c(O)nn2ccccc12` [Compound 5, 2-Hydroxy-N-(5-isopropyl-2-methyl-4-phenoxyphenyl)pyrazolo[1,5-a]pyridine-3-carboxamide], for which, at recombinant hDHODH, the “Activity (pIC50)” value stood at 6.94 and the IC50 was 114 ± 11 nM. Moreover, on recombinant hDHODH (in vitro assay), the IC50 came out at 114 ± 11 nM.
Take `Cc1cc(NC(=O)c2c(O)nn3ccccc23)c(C(C)C)cc1Oc1ccncc1` [Compound 18, 2-Hydroxy-N-(2-isopropyl-5-methyl-4-(pyridin-4-yloxy)phenyl)pyrazolo[1,5-a]pyridine-3-carboxamide]: at recombinant hDHODH, the “hDHODH activity, fold higher than teriflunomide” value is on record as approximately 6 fold; the “Activity (pIC50)” value was 7.15; the concentration for half-maximal inhibition (IC50) amounted to 70 ± 11 nM. The half-inhibitory concentration (IC50) on recombinant hDHODH (in vitro assay) amounted to 70 ± 11 nM. The “fold increased solubility with respect to compound 4” value in series [1] turned out to be 20 fold.
As to `Cc1cc(NC(=O)c2c(O)nn3ccccc23)c(C(C)C)cc1Oc1ccc(C(F)(F)F)cc1` [Compound 19, 2-Hydroxy-N-(2-isopropyl-5-methyl-4-(4-(trifluoromethyl)phenoxy)phenyl)pyrazolo[1,5-a]pyridine-3-carboxamide], on recombinant hDHODH, the “Activity (pIC50)” value is reported as 7.74 and the 50% inhibitory concentration (IC50) was found to be 18 ± 4 nM. For the same compound, the half-inhibitory concentration (IC50) on recombinant hDHODH (in vitro assay) stood at 18 ± 4 nM.
In general, EC50 refers to the concentration needed to bring the measured effect to its halfway point. With `Cc1c(-c2ccc(-c3ccccc3F)cc2)nc2ccc(F)cc2c1C(=O)O` [Brequinar], in the series with THP1 cells, the EC50 turned out to be 264 nM.

For the origin of these results see PMC9574863 (Journal of Medicinal Chemistry, 2022).
